Results on two substances are retold here after PMC13649712.

Assay [1] has as its target mouse PER1 1013-1291 (mouse) (UniProt O35973). The assay can be described thus: ITC; MicroCal PEAQ-ITC, 25 °C; 25 mM HEPES pH 7.5, 150 mM NaCl, 5% glycerol, 1 mM β-ME; 750 µM WDR5 (syringe) into 50 µM PER1, PER2 or RbBP5 (cell); 90 µM PER1 or PER2 (syringe) into 8 µM CRY1 1-496 (cell); one-site binding model; mean of triplicates. For orientation: Isothermal titration calorimetry measures the heat released or taken up as one component is titrated into another.

In assay [2] the target is mouse PER2 1132-1252 (mouse) (UniProt O54943). The assay is described as above.

Broadly, the Kd is the constant that tells how readily two partners part at equilibrium. Higher therefore signals a looser complex. As for “mouse WDR5 22-334 (from UniProt P61965 22-334) (domain or fragment; other documents disagree on this pair)”, the Kd in assay [1] was determined as 3.1 µM; in assay [2] it was 50 µM.

“mouse WDR5 22-334 N225A (from UniProt P61965 22-334) (domain or fragment; other documents disagree on this pair)” had a Kd in assay [1] of 7.3 µM.
